According to publication PMC12415777, “Dose-dependent modulation of hepatic cytochrome P450 enzymes by tenvermectin: implications for medication safety and combination therapy” (Frontiers in Veterinary Science, 2025):

Biological target: T1, CYP2C6 (Rattus norvegicus, UniProt P05178)
T1 construct: native enzyme in rat liver microsomes; diclofenac 4'-hydroxylation read-out
T1 sequence (P05178 1-490): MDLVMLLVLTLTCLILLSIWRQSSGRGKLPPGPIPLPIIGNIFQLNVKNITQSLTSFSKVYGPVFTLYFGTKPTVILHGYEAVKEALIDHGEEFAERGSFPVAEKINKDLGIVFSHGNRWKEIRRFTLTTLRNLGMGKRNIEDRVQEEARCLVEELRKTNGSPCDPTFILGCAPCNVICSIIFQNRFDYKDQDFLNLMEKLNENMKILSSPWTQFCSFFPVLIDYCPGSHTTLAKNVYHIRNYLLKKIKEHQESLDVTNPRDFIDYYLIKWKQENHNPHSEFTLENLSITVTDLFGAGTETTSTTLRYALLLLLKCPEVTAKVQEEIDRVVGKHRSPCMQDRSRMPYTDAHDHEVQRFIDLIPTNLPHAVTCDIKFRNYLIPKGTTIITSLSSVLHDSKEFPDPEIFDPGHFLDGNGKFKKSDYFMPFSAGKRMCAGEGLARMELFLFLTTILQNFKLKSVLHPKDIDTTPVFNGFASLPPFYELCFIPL
Assay: Michaelis-Menten fit in rat liver microsomes, HPLC-MS/MS of […]'-hydroxydiclofenac
Format: biochemical
Conditions: NADPH regeneration system, 0.05 M Tris-HCl pH 7.4, 10 min

Km: (C) diclofenac (DF) (CYP2C6)
Structure (SMILES): O=C(O)Cc1ccccc1Nc1c(Cl)cccc1Cl [DF]
